Marks after values point to notes of the source that are not given here. One block for each compound: values may come before it.
Assays:
[1] = test system: patients with SBP/DBP within 140-179/90-109 mmHg ranges; assay: Phase IIb trial
Description: The Phase IIb trial started with a 4-week placebo run-in period and 261 qualified patients with SBP/DBP within 140-179/90-109 mmHg ranges were randomized to either the compound of formula I 200 mg, 400 mg, 800 mg, irbesartan 300 mg, or placebo, taken daily in the morning for 12 weeks. Key efficacy endpoints of seated SBP, DBP and % of patients with BP control (<140/90 mmHg), and all standard safety parameters were assessed. […] The onset of action of the compound of formula I was rapid within 4 hours and the efficacy was sustained over 12 weeks.

By UniProt entry, the sequences of proteins in these tests, tags left out. Residues count along the entry.
UniProt P25101, 21-427 limits assumed: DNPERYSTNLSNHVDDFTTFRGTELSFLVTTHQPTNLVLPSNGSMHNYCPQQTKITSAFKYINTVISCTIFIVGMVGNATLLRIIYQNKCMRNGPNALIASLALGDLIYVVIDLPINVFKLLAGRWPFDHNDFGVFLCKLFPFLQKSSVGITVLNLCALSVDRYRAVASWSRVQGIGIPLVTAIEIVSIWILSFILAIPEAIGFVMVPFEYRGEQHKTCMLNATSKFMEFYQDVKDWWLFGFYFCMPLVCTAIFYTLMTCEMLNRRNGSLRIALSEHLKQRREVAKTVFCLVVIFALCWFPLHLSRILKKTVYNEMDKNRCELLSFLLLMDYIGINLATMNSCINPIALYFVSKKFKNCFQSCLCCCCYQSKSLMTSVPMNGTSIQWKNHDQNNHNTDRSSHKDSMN
UniProt P24530, 27-442 limits assumed: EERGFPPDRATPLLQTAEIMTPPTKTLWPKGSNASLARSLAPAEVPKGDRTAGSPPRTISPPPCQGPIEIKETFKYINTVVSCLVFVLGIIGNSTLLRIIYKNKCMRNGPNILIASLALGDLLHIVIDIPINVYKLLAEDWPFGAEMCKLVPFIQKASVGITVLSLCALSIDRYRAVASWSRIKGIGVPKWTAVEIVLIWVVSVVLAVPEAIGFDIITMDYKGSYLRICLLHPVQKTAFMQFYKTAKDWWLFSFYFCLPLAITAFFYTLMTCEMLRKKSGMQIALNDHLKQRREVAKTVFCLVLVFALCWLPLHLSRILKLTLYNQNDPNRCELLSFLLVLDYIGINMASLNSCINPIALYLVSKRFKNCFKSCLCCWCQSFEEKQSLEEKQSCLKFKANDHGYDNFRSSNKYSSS
UniProt P25095, whole entry: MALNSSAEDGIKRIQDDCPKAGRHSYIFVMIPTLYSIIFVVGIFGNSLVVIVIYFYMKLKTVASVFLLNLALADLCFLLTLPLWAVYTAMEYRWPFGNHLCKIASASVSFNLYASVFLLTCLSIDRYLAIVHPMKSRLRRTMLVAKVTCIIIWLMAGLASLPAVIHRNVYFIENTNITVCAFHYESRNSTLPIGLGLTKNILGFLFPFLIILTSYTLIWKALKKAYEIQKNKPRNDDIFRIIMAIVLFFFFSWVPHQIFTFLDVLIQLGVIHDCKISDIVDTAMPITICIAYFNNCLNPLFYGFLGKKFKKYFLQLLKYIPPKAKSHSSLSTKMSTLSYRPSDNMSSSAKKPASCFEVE

[2] = target: human endothelin A receptor (Homo sapiens, UniProt P25101); assay: ETA/B Attached Cell Binding Assay; conditions: competition with [125I]-ET-1, CHO-K1 cells
Description: (§1) CHO-K1 cells expressing either the human endothelin A or endothelin B receptor were cultured in Ham's F12 media (Gibco/BRL, Grand Island, N.Y.) with 10% fetal bovine serum (Hyclone), supplemented with 300 µg/mL Geneticin (G-418 Gibco BRL Products, Grand Island, N.Y.) and maintained at 37°C with 5% CO2 in a humidified incubator. Twenty four hours prior to assay, the cells were treated with 0.25% trypsin-EDTA and were seeded in Falcon, 96 well tissue culture plates at a density of 1.8x10^4 cells/well (the monolayer should reach 80-90% confluency by the day of assay).
(§2) In the attached cell assay, culture media was aspirated from each well and the monolayers were washed with 50 µL of PBS (Mg^++, Ca^++ free). The binding assay was performed in a total volume of 125 µL consisting of assay buffer (50 mM Tris, pH 7.4, including 1% BSA, and 2 µM phosphoramidon), and 25 µL of either 500 nM ET-1 (to define nonspecific binding) or competing drug. The reaction was initiated with the addition of 25 µL of 0.25 nM [^125I]-ET-1 (New England Nuclear). Incubation was carried out with gentle orbital shaking, at 4°C, reaching equilibrium at 4 hours. The reaction was terminated by aspiration of the reaction buffer and two subsequent washes with cold PBS (Mg^++, Ca^++ free). […] Data was analyzed with curve fitting software by Sigma plot.

endothelin B receptor = endothelin B receptor (Homo sapiens, UniProt P24530); assay: ETA/B Attached Cell Binding Assay; conditions: competition with [125I]-ET-1, CHO-K1 cells
Description: as §1, §2

[3] = test system: patients with diabetic nephrophathy; assay: Planned study in diabetic nephropathy patients (Example 15); conditions: 200 mg, 400 mg or 800 mg daily for 12 weeks; expected result
Description: The study starts with qualified patients with diabetic nephrophathy. Screening assessments and evaluations may be conducted over a period of no more than 2 weeks. Following screening, all eligible patients will undergo a 4-week placebo run-in period to ensure that baseline blood pressure remains stable and continues to meet eligibility criteria for randomization. Eligible patients are randomized to instruct to either the compound of formula I: 200 mg, 400 mg, or 800 mg; irbesartan 300 mg; or placebo, taken daily for 12 weeks. Key efficacy endpoints of seated systolic BP, diastolic BP and % of patients with BP control (<140/90 mmHg), and all standard safety parameters are assessed. Changes from baseline to final measurement in the course of treatment are recorded.

angiotensin II receptor = angiotensin II receptor (Rattus norvegicus, UniProt P25095); assay: RASMC Binding Assay; conditions: competition with [125]I-Sar-Ile-Angiotensin II, RASMCs
Description: Assays were conducted in a total volume of 250 µL in 96 well microtitre plates. The incubation mixture contained 50 µL [125]I-Sar-Ile-Angiotensin II (0.2 nM), 25 µL of drug dissolved in DMSO, or angiotensin II (1 µM) to define nonspecific binding. Binding to rat aortic smooth muscle cells (RASMCs) was conducted in RPMI media (Gibco BRL Products, Grand Island, N.Y.) containing 0.1% BSA for 2 hours at room temperature with continuous shaking. Unbound radioligand was washed from the wells. The RASMCs with bound radioligand are lysed with 1% Triton X and 0.1% BSA in distilled water for 15 minutes at room temperature with continuous shaking. The solution in each well was transferred to tubes and placed in a gamma counter.

[4] = test system: stage I and II hypertensive patients; assay: Phase IIa trial
Description: The Phase IIa trial started with a 3-4 week placebo run-in period. 141 qualified stage I and II hypertensive patients were randomized to take either the compound of formula I 200 mg, 500 mg, or placebo, daily for 4 weeks. Key efficacy endpoints of mean 24 hour systolic ambulatory blood pressure monitoring (ABPM), mean 24 hour diastolic ABPM, mean seated office systolic blood pressure (SBP) and diastolic blood pressure (DBP), mean daytime SBP and DBP, mean nighttime SBP and DBP, and SBP and DBP during final 2 hours of dosing were assessed. 93 patients (efficacy population) were available for ABPM analysis.

SMILES: CCCCC1=NC2(CCCC2)C(=O)N1Cc1ccc(-c2ccccc2-c2nnn[nH]2)cc1
- ALT Mean change from baseline ([1]; 300 mg): 0.2 U/L
- AST Mean change from baseline ([1]; 300 mg): 0.1 U/L
- AE Abdominal pain/Gastr ([1]; 300 mg (n=58)): 0 n (%)
- AE Diarrhea/Gastr ([1]; 300 mg (n=58)): 1 (1.7) n (%)
- AE Dizziness/Nerv ([1]; 300 mg (n=58)): 2 (3.4) n (%)
- AE Fatigue/Genrl ([1]; 300 mg (n=58)): 3 (5.2) n (%)
- AE Headache/Nerv ([1]; 300 mg (n=58)): 4 (6.9) n (%)
- AE Migraine/Gastr ([1]; 300 mg (n=58)): 2 (3.4) n (%)
- AE Odema peripheral/Genrl ([1]; 300 mg (n=58)): 2 (3.4) n (%)
- AE Urinary tract infection/Infec ([1]; 300 mg (n=58)): 0 n (%)
- % Pts Achieving Goal (< 140/90 mmHg) ([1]; 300 mg daily, Week 12 (n=58)): 31.5%
- Mean DBP Change ([1]; 300 mg daily, Week 12 (n=58)): -7.1 mmHg
- Mean SBP Change ([1]; 300 mg daily, Week 12 (n=58)): -10.7 mmHg

- activity as endothelin receptor antagonist [2]: has shown activity
- activity as endothelin receptor antagonist (endothelin B receptor): has shown activity
- activity as angiotensin II receptor antagonist (angiotensin II receptor): has shown activity
- Hb Mean Change from baseline ([4]; 200 mg (N=39)): -0.5 g/dL
- Ht Mean change from baseline ([4]; 200 mg (N=39)): -1.7%
- γGT Mean change from baseline ([4]; 200 mg (N=39)): +0.3 U/L
- Hb Mean Change from baseline ([4]; 500 mg (N=38)): -0.7 g/dL
- Ht Mean change from baseline ([4]; 500 mg (N=38)): -2.2%
- γGT Mean change from baseline ([4]; 500 mg (N=38)): +0.8 U/L
SMILES: CCCCC1=NC2(CCCC2)C(=O)N1Cc1ccc(-c2ccccc2S(=O)(=O)Nc2noc(C)c2C)c(COCC)c1
- BP decrease in SBP and DBP, and BP control [3]: statistically dose-dependent greater BP decrease in SBP and DBP, and in BP control than placebo and irbesartan
- ALT Mean change from baseline ([1]; 200 mg): -0.4 U/L
- AST Mean change from baseline ([1]; 200 mg): -1.2 U/L
- AE Abdominal pain/Gastr ([1]; 200 mg (n=58)): 1 (1.7) n (%)
- AE Diarrhea/Gastr ([1]; 200 mg (n=58)): 1 (1.7) n (%)
- AE Dizziness/Nerv ([1]; 200 mg (n=58)): 0 n (%)
- AE Fatigue/Genrl ([1]; 200 mg (n=58)): 0 n (%)
- AE Headache/Nerv ([1]; 200 mg (n=58)): 0 n (%)
- AE Migraine/Gastr ([1]; 200 mg (n=58)): 0 n (%)
- AE Odema peripheral/Genrl ([1]; 200 mg (n=58)): 2 (3.4) n (%)
- AE Urinary tract infection/Infec ([1]; 200 mg (n=58)): 0 n (%)
- % Pts Achieving Goal (< 140/90 mmHg) ([1]; 200 mg daily, Week 12 (n=58)): 36.2%
- Mean DBP Change ([1]; 200 mg daily, Week 12 (n=58)): -7.2 mmHg
- Mean SBP Change ([1]; 200 mg daily, Week 12 (n=58)): -13.2 mmHg
- ALT Mean change from baseline ([1]; 400 mg): -3.2 U/L
- AST Mean change from baseline ([1]; 400 mg): -1.5 U/L
- AE Abdominal pain/Gastr ([1]; 400 mg (n=58)): 0 n (%)
- AE Diarrhea/Gastr ([1]; 400 mg (n=58)): 1 (1.7) n (%)
- AE Dizziness/Nerv ([1]; 400 mg (n=58)): 2 (3.4) n (%)
- AE Fatigue/Genrl ([1]; 400 mg (n=58)): 4 (6.9) n (%)
- AE Headache/Nerv ([1]; 400 mg (n=58)): 3 (5.2) n (%)
- AE Migraine/Gastr ([1]; 400 mg (n=58)): 2 (3.4) n (%)
- AE Odema peripheral/Genrl ([1]; 400 mg (n=58)): 4 (6.9) n (%)
- AE Urinary tract infection/Infec ([1]; 400 mg (n=58)): 0 n (%)
- % Pts Achieving Goal (< 140/90 mmHg) ([1]; 400 mg daily, Week 12 (n=58)): 51.9% ^b
- Mean DBP Change ([1]; 400 mg daily, Week 12 (n=58)): -9.2 mmHg
- Mean SBP Change ([1]; 400 mg daily, Week 12 (n=58)): -14.2 mmHg
- ALT Mean change from baseline ([1]; 800 mg): -7.3 U/L
- AST Mean change from baseline ([1]; 800 mg): -5.4 U/L
- AE Abdominal pain/Gastr ([1]; 800 mg (n=28)): 2 (7.1) n (%)
- AE Diarrhea/Gastr ([1]; 800 mg (n=28)): 2 (7.1) n (%)
- AE Dizziness/Nerv ([1]; 800 mg (n=28)): 3 (10.7) n (%)
- AE Fatigue/Genrl ([1]; 800 mg (n=28)): 0 n (%)
- AE Headache/Nerv ([1]; 800 mg (n=28)): 2 (7.1) n (%)
- AE Migraine/Gastr ([1]; 800 mg (n=28)): 0 n (%)
- AE Odema peripheral/Genrl ([1]; 800 mg (n=28)): 3 (10.7) n (%)
- AE Urinary tract infection/Infec ([1]; 800 mg (n=28)): 1 (3.6) n (%)
- Mean DBP Change ([1]; 800 mg daily, Week 12 (n=28)): -14.3 ^a mmHg
- Mean SBP Change ([1]; 800 mg daily, Week 12 (n=28)): -23.4 ^a mmHg
- onset of action ([1]; in vivo): ≤ 4 h
- AE Confusion/anxiety/nervousness ([4]; 200 mg (N=39)): 0 n (%)
- AE Eczema ([4]; 200 mg (N=39)): 1 (2.6) n (%)
- AE Headache ([4]; 200 mg (N=39)): 2 (5.1) n (%)
- AE Musculoskeletal ([4]; 200 mg (N=39)): 1 (2.6) n (%)
- AE Nausea/gastritis ([4]; 200 mg (N=39)): 2 (5.1) n (%)
- AE Peripheral Edema ([4]; 200 mg (N=39)): 0 n (%)
- AE Respiratory ([4]; 200 mg (N=39)): 0 n (%)
- AE Tachycardia ([4]; 200 mg (N=39)): 0 n (%)
- ALT Mean change from baseline ([4]; 200 mg (N=39)): -1.5 U/L
- AST Mean change from baseline ([4]; 200 mg (N=39)): -0.9 U/L
- At least one AE ([4]; 200 mg (N=39)): 8 (20.5) n (%)
- Mean 24 hr ABPM Change DBP ([4]; 200 mg daily, Week 4 (n=35)): -9.3^a mmHg
- Mean 24 hr ABPM Change SBP ([4]; 200 mg daily, Week 4 (n=35)): -12.2 ^a mmHg
- Mean Seated Office Change DBP ([4]; 200 mg daily, Week 4 (n=35)): -10.5^b mmHg
- Mean Seated Office Change SBP ([4]; 200 mg daily, Week 4 (n=35)): -16.9^b mmHg
- safety and tolerability ([4]; 200 mg or 500 mg once-daily, 4 weeks): safe and well tolerated
- AE Confusion/anxiety/nervousness ([4]; 500 mg (N=38)): 0 n (%)
- AE Eczema ([4]; 500 mg (N=38)): 0 n (%)
- AE Headache ([4]; 500 mg (N=38)): 1 (2.6) n (%)
- AE Musculoskeletal ([4]; 500 mg (N=38)): 2 (5.3) n (%)
- AE Nausea/gastritis ([4]; 500 mg (N=38)): 1 (2.6) n (%)
- AE Peripheral Edema ([4]; 500 mg (N=38)): 1 (2.6) n (%)
- AE Respiratory ([4]; 500 mg (N=38)): 3 (7.9) n (%)
- AE Tachycardia ([4]; 500 mg (N=38)): 0 n (%)
- ALT Mean change from baseline ([4]; 500 mg (N=38)): -0.9 U/L
- AST Mean change from baseline ([4]; 500 mg (N=38)): -1.2 U/L
- At least one AE ([4]; 500 mg (N=38)): 10 (26.3) n (%)
- Mean 24 hr ABPM Change DBP ([4]; 500 mg daily, Week 4 (n=33)): -10.1 ^a mmHg
- Mean 24 hr ABPM Change SBP ([4]; 500 mg daily, Week 4 (n=33)): -14.8 ^a mmHg
- Mean Seated Office Change DBP ([4]; 500 mg daily, Week 4 (n=33)): -9.8^b mmHg
- Mean Seated Office Change SBP ([4]; 500 mg daily, Week 4 (n=33)): -17.3^b mmHg

From patent EP4825441A2, “ORAL FORMULATIONS OF BIPHENYLSULFONAMIDE ENDOTHELIN ANGIOTENSIN II RECEPTOR ANTAGONISTS TO TREAT ELEVATED BLOOD PRESSURE AND DIABETIC NEPHROPATHY” (dated 2026)
